Measurements reported in patent US20100056458A1, “Peptides Inhibiting Angiotensin-Converting Enzyme” (CAMPINA NEDERLAND HOLDING B.V., priority 2005, published 2010).

Test system: angiotensin-converting enzyme (ACE)
Test: HPLC with mass spectrometry and on-line bioassay unit for assessing ACE-inhibiting activity
Format: biochemical
Excerpt: The identity and the activity of the peptides and their mixtures can be determined by known methods, e.g. as described by Van Elswijk et al. J Chromatography A, 1020 (2003) 45-58, involving liquid chromatography coupled to mass spectroscopy, and on-line bioassay. […] The IC50 can be determined in vitro as described by V. Vermeirsen, J. van Camp & J. Verstraete, “Optimisation and validation of an angiotensin-converting enzyme inhibition assay for the screening of bioactive peptides”. J. Biochem. Biophys. Methods 51, 75-87 (2002).
The peptides obtained according to example I, were analysed using HPLC as described by Van Elswijk et al. J Chromatography A 1020 (2003) 45-58. The HPLC eluate was divided over a mass spectrometry for determining the peptide structure and a bioassay unit for assessing the ACE-inhibiting activity. The following peptides were identified: AVP (SEQ ID No. 25), LV (SEQ ID No. 5) and IV (SEQ ID No. 1). Another batch of the same caseinate contained the peptides KIHP (SEQ ID No. 28), KK (SEQ ID No. 73), VPYPQR (SEQ ID No. 20), and KYKVPQ (SEQ ID No. 91). Starting with other casein sources the peptides VLGPV (SEQ ID No. 10), VLPVPQK (SEQ ID No. 75), VPYPQ (SEQ ID No. 21), KK (SEQ ID No. 73), VNELSK (SEQ ID No. 76), and FFVAPFPEVFG (SEQ ID No. 33) were found.
Similarly the product from example II was analysed and contained IAEKT (SEQ ID No. 57), LDIQK (SEQ ID No. 74) and LKALP (SEQ ID No. 64). Starting from other whey protein sources WPC 60 or whey protein isolate, VLGPV (SEQ ID No. 10), VLPVPQ (SEQ ID No. 18), MKGLDI (SEQ ID No. 41), LR (SEQ ID No. 44), MHIRLS (SEQ ID No. 48), IIA (SEQ ID No. 56) were identified.

[1] = hydrolysate of example I (calcium caseinate)

IV (listed as Bos taurus)
identified as ACE-inhibiting peptide [1]: identified

KK: β-casein-derived peptide
identified as ACE-inhibiting peptide (another batch of the same caseinate): contained
identified as ACE-inhibiting peptide (other casein sources): found

LR (listed as Bos taurus)
identified as ACE-inhibiting peptide (other whey protein sources WPC 60 or whey protein isolate): identified

LV (listed as Bos taurus)
identified as ACE-inhibiting peptide [1]: identified
